According to patent US20090304746A1 (priority 1993, published 2009):
Like-named read-outs stand apart in the source and are kept apart here.

Protein sequences, listed by entry. Tags and fused reporters are not part of them. Lines headed by an entry give the natural chain unless they say otherwise; changes in a name come on top. Residues count along the entry.
UniProt P01889, 25-362: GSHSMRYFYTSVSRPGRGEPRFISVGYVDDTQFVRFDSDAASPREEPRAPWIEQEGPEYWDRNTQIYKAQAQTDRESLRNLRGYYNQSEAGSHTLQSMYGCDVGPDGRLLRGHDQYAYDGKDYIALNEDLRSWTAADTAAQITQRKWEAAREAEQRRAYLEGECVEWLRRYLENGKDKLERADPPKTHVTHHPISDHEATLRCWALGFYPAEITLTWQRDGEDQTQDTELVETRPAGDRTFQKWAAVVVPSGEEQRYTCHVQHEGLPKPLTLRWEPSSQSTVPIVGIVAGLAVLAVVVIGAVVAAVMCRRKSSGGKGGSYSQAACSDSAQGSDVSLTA

Key:
HLA-B*0702 = biological target: T1, HLA-B*0702 (Homo sapiens, UniProt P01889); experiment: HLA class I binding assay, B*0702
T1 construct: endogenous in cells; host or cells: GM3107

HLA-B51 = experiment: HLA class I binding assay, B51; parameters: species or system human
HLA-B*5401 = HLA-B*5401 (Homo sapiens, UniProt P01889, A329T/C349S/D138N/D201E/E176V/E187T/E204Q/E69G/I76V/K202T/L119W/R155S/R180L/S121T/S35A/S48A/V127L/V306I/V36M/Y140L); experiment: HLA class I binding assay, B*5401
[1] = system: A3-supertype molecules (A*03, A*11, A*3101, A*3301, A*6801); experiment: A3-supertype cross-reactive binding, five molecules; parameters: species or system human; details: number of A3-supertype molecules bound (cross-reactivity)
HLA-B*3501 = HLA-B*3501 (Homo sapiens, UniProt P01889, A329T/A93T/A95T/C349S/D201E/D98Y/E176V/E187L/E204Q/E69T/I218V/K202T/L119I/Q94N/R155S/R180L/S121R/S35A/S48A/T118I/V127L/V306I/V36M/Y140S/Y91F); experiment: HLA class I binding assay, B*3501
HLA-B*5301 = HLA-B*5301 (Homo sapiens, UniProt P01889, A329T/A93T/A95T/C349S/D201E/D98Y/E176V/E187L/E204Q/E69T/G107R/I218V/K202T/L105A/L119I/N104I/Q94N/R106L/R155S/R180L/S101N/S121R/S35A/S48A/T118I/V127L/V306I/V36M/Y140S/Y91F); experiment: HLA class I binding assay, B*5301
[2] = system: HLA-A11/K^b transgenic mice; experiment: CTL induction in HLA-A11/K^b transgenic mice after peptide immunization; format: in vivo, mouse
[3] = A3 supermotif peptides, spread in brackets
[4] = HLA-A11/K^b transgenic mice, average magnitude (standard deviation) in positive animals
[5] = HLA-A11/K^b transgenic mice, positive responses over total number of mice examined

## LPVCQDHLEF
HLA-B*0702
  B*0702 (Binding Information): 0.0001
HLA-B51
  B*5101 (Binding Information): 0.0002
HLA-B*5401
  B*5401 (Binding Information): 0.0003

## CC(C)[C@H](NC(=O)CNC(=O)[C@H](CCCNC(=N)N)NC(=O)[C@@H](NC(=O)[C@H](CS)NC(=O)[C@@H](NC(=O)[C@H](C)N)C(C)C)[C@@H](C)O)C(=O)N[C@@H](C)C(=O)N[C@@H](CCCCN)C(=O)O [Peptide 1090.23]
[1]
  A3 XRN: 2

## CC[C@H](C)[C@H](NC(=O)[C@@H]1CCCN1C(=O)[C@H](CCC(N)=O)NC(=O)[C@H](CCCNC(=N)N)NC(=O)[C@H](CCCNC(=N)N)NC(=O)CNC(=O)[C@H](CCCNC(=N)N)NC(=O)[C@@H]1CCCN1C(=O)[C@@H](N)CCC(N)=O)C(=O)O [Peptide 15.0039]
HLA-B51
  IC50: > 30000 nM

## CC(C)C[C@H](NC(=O)[C@H](C)NC(=O)CNC(=O)[C@H](C)NC(=O)[C@@H](NC(=O)CN)C(C)C)C(=O)N[C@H](C(=O)N[C@@H](C)C(=O)N[C@@H](Cc1ccccc1)C(=O)N[C@@H](CCCCN)C(=O)O)C(C)C [Peptide 1073.10]
[1]
  A3 XRN: 3

## TPLLYRLGAV
HLA-B*0702
  B*0702 (Binding Information): 0.0120
HLA-B*3501
  B*3501 (Binding Information): 0.0001
HLA-B51
  B*5101 (Binding Information): 0.0008
HLA-B*5301
  B*5301 (Binding Information): 0.0001
HLA-B*5401
  B*5401 (Binding Information): 0.0110

## CSCC[C@H](NC(=O)[C@@H](N)Cc1c[nH]c2ccccc12)C(=O)N[C@@H](CC(N)=O)C(=O)N[C@@H](CO)C(=O)N[C@H](C(=O)NCC(=O)N[C@@H](Cc1ccccc1)C(=O)N[C@H](C(=O)N[C@@H](CCCCN)C(=O)O)[C@@H](C)O)[C@@H](C)O [Peptide 1174.16]
[1]
  A3 XRN: 2

## CSCC[C@H](NC(=O)[C@H](CC(C)C)NC(=O)[C@H](CO)NC(=O)[C@H](C)NC(=O)[C@H](CC(C)C)NC(=O)[C@H](C)NC(=O)[C@@H]1CCCN1C(=O)[C@@H](N)CC(N)=O)C(=O)N[C@@H](C)C(=O)N[C@@H](Cc1ccccc1)C(=O)O
HLA-B51
  IC50: 5000 nM

## CC(C)C[C@H](NC(=O)[C@@H](NC(=O)[C@@H](NC(=O)[C@H](Cc1ccccc1)NC(=O)[C@H](CO)NC(=O)[C@H](CS)NC(=O)[C@@H]1CCCN1C(=O)[C@@H](N)CC(C)C)[C@@H](C)O)[C@@H](C)O)C(=O)N1CCC[C@H]1C(=O)N[C@@H](C)C(=O)O [Peptide 16.0187]
HLA-B51
  IC50: 9170 nM

## CC[C@H](C)[C@H](NC(=O)[C@@H](N)CC(C)C)C(=O)N[C@@H](Cc1ccccc1)C(=O)N[C@@H](CS)C(=O)N[C@@H](Cc1c[nH]cn1)C(=O)N[C@@H](CO)C(=O)N[C@@H](CCCCN)C(=O)N[C@@H](CCCCN)C(=O)N[C@@H](CCCCN)C(=O)O [Peptide 1.0123]
[1]
  A3 XRN: 3
[2]; A3 supermotif peptides
  Immunogenicity Transgenic mice, Frequency: 3/6
[2]; [3]
  Immunogenicity Transgenic mice, Response: 4.4 (1.1)
[2]; [4]
  Immunogenicity Transgenic mice, Response: 4.4 (1.1) lytic units
[2]; [5]
  Immunogenicity Transgenic mice, Frequency: 3/6

## CC(C)[C@H](NC(=O)[C@H](CS)NC(=O)[C@H](Cc1ccccc1)NC(=O)[C@@H](NC(=O)[C@@H](N)CCC(=O)O)C(C)C)C(=O)N[C@@H](CCC(N)=O)C(=O)N1CCC[C@H]1C(=O)N[C@@H](CCC(=O)O)C(=O)N[C@@H](CCCCN)C(=O)O [Peptide 1090.24]
[1]
  A3 XRN: 2

## C[C@@H](O)[C@H](NC(=O)[C@@H](N)CCCCN)C(=O)N[C@@H](CO)C(=O)N[C@@H](CCC(=O)O)C(=O)N[C@@H](CCCNC(=N)N)C(=O)N[C@@H](CO)C(=O)N[C@@H](CCC(N)=O)C(=O)N1CCC[C@H]1C(=O)N[C@@H](CCCNC(=N)N)C(=O)O [Peptide 1.0952]
[1]
  A3 XRN: 4

## LPRRGPRLGV
HLA-B51
  B*5101 (Binding Information): 0.0009

## C[C@H](N)C(=O)N[C@@H](C)C(=O)N[C@@H](CS)C(=O)N[C@@H](CC(N)=O)C(=O)N[C@@H](Cc1c[nH]c2ccccc12)C(=O)N[C@H](C(=O)N[C@@H](CCCNC(=N)N)C(=O)NCC(=O)N[C@@H](CCC(=O)O)C(=O)N[C@@H](CCCNC(=N)N)C(=O)O)[C@@H](C)O [Peptide 24.0103]
[1]
  A3 XRN: 2

## CSCC[C@H](NC(=O)[C@H](Cc1ccc(O)cc1)NC(=O)[C@H](C)NC(=O)CNC(=O)[C@H](Cc1ccccc1)NC(=O)CNC(=O)[C@H](CC(C)C)NC(=O)[C@@H](N)[C@@H](C)O)C(=O)N[C@@H](CO)C(=O)N[C@@H](CCCCN)C(=O)O [Peptide 1073.14]
[1]
  A3 XRN: 2

## CC(C)C[C@H](NC(=O)[C@H](C)NC(=O)CNC(=O)[C@H](C)NC(=O)[C@@H](N)C(C)C)C(=O)N[C@H](C(=O)N[C@@H](C)C(=O)N[C@@H](Cc1ccccc1)C(=O)N[C@@H](CCCCN)C(=O)O)C(C)C [Peptide 24.0090]
[1]
  A3 XRN: 3
[2]; A3 supermotif peptides
  Immunogenicity Transgenic mice, Frequency: 1/6
[2]; [3]
  Immunogenicity Transgenic mice, Response: 7.1
[2]; [4]
  Immunogenicity Transgenic mice, Response: 7.1 lytic units
[2]; [5]
  Immunogenicity Transgenic mice, Frequency: 1/6

## SPGALVVGVV
HLA-B*3501
  B*3501 (Binding Information): 0.0001
HLA-B*5301
  B*5301 (Binding Information): 0.0001
HLA-B*5401
  B*5401 (Binding Information): 0.0003

## QPEKGGRKPA
HLA-B*3501
  B*3501 (Binding Information): 0.0001
HLA-B51
  B*5101 (Binding Information): 0.0001
HLA-B*5301
  B*5301 (Binding Information): 0.0002

## CC(C)C[C@H](NC(=O)[C@@H](N)Cc1c[nH]cn1)C(=O)N[C@@H](Cc1c[nH]cn1)C(=O)N[C@@H](C)C(=O)N1CCC[C@H]1C(=O)N[C@H](C(=O)NCC(=O)N[C@@H](CO)C(=O)NCC(=O)N[C@@H](CCCCN)C(=O)O)[C@@H](C)O [Peptide 1073.16]
[1]
  A3 XRN: 1

## CC[C@H](C)[C@H](NC(=O)[C@@H]1CCCN1C(=O)[C@@H](N)CC(C)C)C(=O)N[C@@H](CC(N)=O)C(=O)N[C@@H](C)C(=O)N[C@@H](CC(C)C)C(=O)N[C@@H](CO)C(=O)N[C@@H](CC(N)=O)C(=O)N[C@@H](CO)C(=O)N[C@@H](CC(C)C)C(=O)O [Peptide 29.0085]
HLA-B51
  IC50: 1170 nM

## TPCTCGSSDL
HLA-B51; HCV B07 supermotif peptides, binding value, no unit or definition in the table
  B*5101 (Binding Information): 0.0002

## CC(C)C[C@H](NC(=O)[C@@H](N)CCCNC(=N)N)C(=O)NCC(=O)N[C@H](C(=O)N[C@@H](CCCNC(=N)N)C(=O)N[C@@H](C)C(=O)N[C@H](C(=O)N[C@@H](CCCNC(=N)N)C(=O)N[C@@H](CCCCN)C(=O)O)[C@@H](C)O)C(C)C [Peptide 1073.11]
[2]; A3 supermotif peptides
  Immunogenicity Transgenic mice, Frequency: 3/6
[2]; [3]
  Immunogenicity Transgenic mice, Response: 42.2 (1.2)
[2]; [4]
  Immunogenicity Transgenic mice, Response: 42.2 (1.2) lytic units
[2]; [5]
  Immunogenicity Transgenic mice, Frequency: 3/6

## CC(C)C[C@H](NC(=O)[C@@H]1CCCN1C(=O)[C@H](CS)NC(=O)CNC(=O)[C@H](Cc1c[nH]cn1)NC(=O)[C@@H](NC(=O)[C@@H](NC(=O)[C@@H]1CCCN1C(=O)[C@@H]1CCCN1)C(C)C)C(C)C)C(=O)O [Peptide 1292.17]
HLA-B51
  IC50: > 30000 nM
